Data taken from article PMC12228764 (Nature Communications, 2025).

How the values were obtained:
[1] = biological target: INTS7 in the reconstituted DSS1–INTAC complex (human); assay: cryo-EM structure
[2] = biological target: INTS2 in the reconstituted DSS1–INTAC complex (human); assay: cryo-EM structure

binding result [1]: binds
binding result [2]: binds
B1: DSS1 in the reconstituted DSS1–INTAC complex (pLVX-DSS1-WT co-expressed with INTS1 to INTS14) (natural protein)
chain: MSEKKQPVDLGLLEEDDEFEEFPAEDWAGLDEDEDAHVWEDNWDDDNVEDDFSNQLRAELEKHGYKMETS
